Laboratory results published in US10342818B2, “Dual-action compounds targeting adenosine A2A receptor and adenosine transporter for prevention and treatment of neurodegenerative diseases” (Academia Sinica, priority 2009, dated 2019).

Amino acid sequences for entries named in this document (tags omitted). Residues count along the entry.
UniProt H0V4R7, 1-461: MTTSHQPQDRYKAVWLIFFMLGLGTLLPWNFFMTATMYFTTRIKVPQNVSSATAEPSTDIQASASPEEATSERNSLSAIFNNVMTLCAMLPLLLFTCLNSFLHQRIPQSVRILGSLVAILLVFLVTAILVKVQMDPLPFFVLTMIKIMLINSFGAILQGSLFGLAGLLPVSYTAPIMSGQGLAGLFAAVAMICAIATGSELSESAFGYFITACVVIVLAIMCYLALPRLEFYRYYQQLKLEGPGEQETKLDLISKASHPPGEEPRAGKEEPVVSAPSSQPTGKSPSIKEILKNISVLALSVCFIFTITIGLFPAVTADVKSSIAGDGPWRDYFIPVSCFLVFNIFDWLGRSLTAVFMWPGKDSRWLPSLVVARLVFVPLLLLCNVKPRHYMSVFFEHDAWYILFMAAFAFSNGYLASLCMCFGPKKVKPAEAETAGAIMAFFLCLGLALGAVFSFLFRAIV

Legend:
human A2A receptor = human A2A receptor (Homo sapiens, UniProt P29274); assay: Radioligand binding assay of the A2A receptor (3H-CGS21680, MDS Pharma Services); settings: for pKi: read-out: Ki A2A-R, human adenosine A2A receptor, HEK293 membranes, 3H-CGS21680 50 nM
[1] = biological target: equilibrative nucleoside transporter 1 (ENT1) (Cavia porcellus, UniProt H0V4R7); assay: Radioligand binding assay for adenosine transporters (3H-NBTI, cerebral cortex membranes); settings: for pKi: read-out: Ki ENT1, guinea pig equilibrium transporter 1, cerebral cortex membranes, 3H-NBTI 0.5 nM
PC12 cells = assay: MTT metabolism assay, rescue of serum-deprived PC12 cells from apoptosis; settings: 0.01 μM, 24 h
Protocol: We have previously reported that compound 1 isolated from an aqueous methanolic extract of Gastrodia elata prevented apoptosis of serum-deprived PC12 cells by suppressing JNK activity.^15 In this study, serum-deprived PC12 cells were treated with the compound at the indicated dose for 24 h. Cell viability was monitored by the MTT assay, and is expressed as a percentage of the MTT activity measured in the serum-containing group. At a concentration of 0.01 μM, compounds 4 and 6 also rescued PC12 cells from the apoptosis evoked by serum withdrawal equally as well as 1 according to the cell viability of MTT assays. […]
PC12 cells purchased from ATCC (Manassas, Va., USA) were maintained in Dulbecco's modified Eagle's medium (DMEM) supplemented with 10% horse serum and 5% fetal bovine serum and incubated in a CO2 incubator (5%) at 37° C. Survival was assessed by the 3-(4,5-dimethylthiazol-2-yl)-2,5-diphenyltetrazolium bromide (MTT) metabolism assay as described elsewhere.^49,50 In brief, cells grown on 150-mm plates were washed three times with PBS and resuspended in DMEM. […] The absorbance at 570/630 nm in each well was measured on a micro-enzyme-linked immunosorbent assay (ELISA) reader.

Compound | pKi (human A2A receptor) | pKi [1] | Binding with A2AR, result in words (human A2A receptor; radioligand binding) | Binding with / activity against ENT1, result in words ([1]; radioligand binding) | Rescue of PC12 cells from apoptosis evoked by serum withdrawal (cell viability, MTT) (PC12 cells)
O=[N+]([O-])c1ccc(CNc2ncnc3c2ncn3[C@@H]2O[C@H](CO)[C@@H](O)[C@H]2O)cc1 | 4.56 | 8.19 |  |  | 
OC[C@H]1O[C@@H](n2cnc3c(NCc4ccc(Br)cc4)ncnc32)[C@H](O)[C@@H]1O | 4.84 | 7.84 |  |  | 
OC[C@H]1O[C@@H](n2cnc3c(NCc4cccc(O)c4)ncnc32)[C@H](O)[C@@H]1O | 5.49 | 5.43 | low micromolar | sub-micromolar range | rescued PC12 cells from the apoptosis evoked by serum withdrawal equally as well as 1

pKi: −log10 of the molar value.
